{
  "sequences": {"note": "Protein sequences, listed by entry. Tags and fused reporters are not part of them.", "UniProt P23977, whole entry": "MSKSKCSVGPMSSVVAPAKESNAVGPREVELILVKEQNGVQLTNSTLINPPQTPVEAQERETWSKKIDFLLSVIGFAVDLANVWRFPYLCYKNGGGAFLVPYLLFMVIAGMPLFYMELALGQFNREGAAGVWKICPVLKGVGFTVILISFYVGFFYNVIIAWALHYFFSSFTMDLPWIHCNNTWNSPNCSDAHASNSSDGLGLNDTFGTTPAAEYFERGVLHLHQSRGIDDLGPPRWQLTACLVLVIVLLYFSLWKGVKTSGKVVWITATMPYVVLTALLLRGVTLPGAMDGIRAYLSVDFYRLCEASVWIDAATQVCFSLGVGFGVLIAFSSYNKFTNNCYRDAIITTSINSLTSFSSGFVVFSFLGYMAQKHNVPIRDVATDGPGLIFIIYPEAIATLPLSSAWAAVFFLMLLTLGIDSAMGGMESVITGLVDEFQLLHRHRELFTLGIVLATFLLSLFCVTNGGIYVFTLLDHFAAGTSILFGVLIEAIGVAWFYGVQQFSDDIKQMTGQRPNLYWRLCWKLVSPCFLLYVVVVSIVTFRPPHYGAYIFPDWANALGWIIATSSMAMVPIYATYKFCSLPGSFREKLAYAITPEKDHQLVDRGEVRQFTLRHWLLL"},
  "source": "ChEMBL document CHEMBL1125413",
  "about": "(J Med Chem, 1992)",
  "molecular_target": "Sodium-dependent dopamine transporter (Rattus norvegicus, UniProt P23977)",
  "experiment": "Inhibition of [3H]WIN-35428 binding to the dopamine transporter",
  "data": [
    {"compound": "COC(=O)[C@@H]1C2CC[C@H](C[C@@H]1c1ccc(OC)cc1)N2C", "values": [
      {"measurement": "IC50", "value": 8, "unit": "nM"}
    ]}
  ]
}
